Test results as given in BigSolDB 2.1.

CCCc1nn(C)c2c(=O)[nH]c(-c3cc(S(=O)(=O)N4CCN(C)CC4)ccc3OCC)nc12.O=C(O)CC(O)(CC(=O)O)C(=O)O
solubility (mole fraction)
Conditions | 293.2 K | 298.2 K | 303.2 K | 308.2 K | 313.2 K
in isopropanol | 3.7e-05 | 5.53e-05 | 8.44e-05 | 0.000122 | 0.000167
in water | 0.000136 | 0.000158 | 0.000194 | 0.000235 | 0.000324
